Assay results taken from ChEMBL document CHEMBL1759857, “Synthesis and evaluation of isatin analogs as caspase-3 inhibitors: introduction of a hydrophilic group increases potency in a whole cell assay” (Bioorg Med Chem Lett, 2011).
pIC50: −log10 of the molar value.

Molecular target: T1, Caspase-7 (Homo sapiens, UniProt P55210)
T1 sequence (P55210 whole entry): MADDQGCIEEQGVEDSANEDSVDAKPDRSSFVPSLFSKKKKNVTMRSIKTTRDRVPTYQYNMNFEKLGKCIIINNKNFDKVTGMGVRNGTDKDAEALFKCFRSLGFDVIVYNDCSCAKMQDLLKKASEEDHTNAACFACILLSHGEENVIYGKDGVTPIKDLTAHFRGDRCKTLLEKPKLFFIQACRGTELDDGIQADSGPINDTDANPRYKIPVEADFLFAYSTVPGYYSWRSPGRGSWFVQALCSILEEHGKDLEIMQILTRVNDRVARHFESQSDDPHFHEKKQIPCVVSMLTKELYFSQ
Test: Inhibition of caspase 7 by fluorometric assay

With `O=C1C(=O)N(Cc2cn(CCF)nn2)c2ccc(S(=O)(=O)N3CCC[C@H]3COc3cccnc3)cc21` the pIC50 was 8.42.
